Experimental data taken from patent US20230135524A1, “ARYL HYDANTOIN HETEROCYCLES AND METHODS OF USE” (The United States of America,as represented by the …, priority 2020, published 2023).

System: LNCaP ARF876L
Experiment: IncuCyte % confluence cell growth inhibition, LNCaP ARF876L
Type: cell-based
Conditions: Homo sapiens, AR-positive, AR mutation F876L, % cell growth inhibition relative to DMSO

- IC50: 98.7 µM
SMILES: CNC(=O)c1ccc(N2C(=S)N(c3cnc(C#N)c(C(F)(F)F)c3)C(=O)C23CCC3)cc1F [ARN509, reference compound]
